The experiment concerns NIH/Swiss mice. Description: acute food intake assay in overnight-fasted mice, IP injection. The class given is in vivo, mouse. As for the experimental part: The effect of AFP-6 on food intake was investigated using an acute food intake assay. This assay measured food consumption in lean, group-housed, overnight-fasted NIH/Swiss mice. 12 mice were housed 3 to a cage. The sample compound, in this case AFP-6, was injected IP in mice and food intake was measured during the next 2-hours. Decreased, as well as increased, food intake can be measured. Testing various doses of the compound generated ED50's. The assay was performed as follows: 1. Remove food (water ad libitum) at 5:00 pm the evening before the study. 2. Weigh food pellets (3 pellets/cage). 3. Inject animals intraperitoneally with 200 ul of appropriate solution, t=0. 4. Immediately add pre-weighed food to each cage (away from water bottle spout) and allow animals to feed undisturbed. 5. At 30, 60, and 120 minutes, collect and weigh food. 6. Analyze data. Data points represent mean ±sd of n=12.
Twelve mice were injected IP at t=0 for each dose, 0.3, 1, 3, 10, 30, 100, or 300 nmol/kg of AFP-6 (Amylin Pharmaceuticals, Inc.) (n=12/group). Food was introduced immediately after injection and amount consumed measured at t=30, 60, and 120 min.

These results are taken from patent US7928060B2, “Amylin family polypeptide-6 (AFP-6) analogs and methods of making and using them” (Amylin Pharmaceuticals, Inc., priority 2004, dated 2011).

As to “r/h CGRP: Amylin Family polypeptide of Table 3; r/h not resolved per value”, the “FI 30 min ED50” value (30 min) came out at 0.9 nmol/kg. For the setting “60 min”, the “FI 60 min ED50” value was 4.2 nmol/kg.
